## Measured affinities in a library of Ab-14 heavy chain variants

All variants were tested on one target, the spike HR2 peptide PDVDLGDISGINAS (SARS-CoV-2).

Parent scFv Ab-14: VH joined to VL by three GGGGS repeats. Changes lie in the heavy chain CDRs alone.
VH: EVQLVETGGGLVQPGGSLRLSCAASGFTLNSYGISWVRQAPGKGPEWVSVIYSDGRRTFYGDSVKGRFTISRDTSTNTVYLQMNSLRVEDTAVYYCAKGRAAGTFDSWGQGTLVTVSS
VL: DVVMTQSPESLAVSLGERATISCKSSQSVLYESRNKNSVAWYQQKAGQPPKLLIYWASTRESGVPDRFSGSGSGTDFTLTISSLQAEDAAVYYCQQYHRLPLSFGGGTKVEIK

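The library (AAYL49) carries one to three amino acid substitutions per variant, with no insertions or deletions. The assay is AlphaSeq: two haploid yeast populations carry antibody and antigen on their surface. The frequency of each diploid, read from paired DNA barcodes, reflects how well the two displayed proteins bind. Each replicate has its own calibration line, from reference interactions of the BCL2 family. Mating was done three times.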

Substitutions are numbered in sequence along the VH above, starting at 1 (not Kabat).
The read-out is the apparent dissociation constant on a log10 scale (nM): the lower, the stronger.
A mean of the replicates is given; it leaves out those without a signal.
"nd" means that the variant was in the library but no mating with the target was seen in any replicate; the authors take this as a sign of poor binding, and no number exists.

"mean, log10 nM",seen in,changes
nd,0/3,S31Y+S53W+S63D
nd,0/3,G99E+D106P+S107M
nd,0/3,I34M+V64H+R100V
nd,0/3,D62V+G99H+G103L
3.78,2/3,I51N+G103H+D106Q
nd,0/3,S35G+T58N+D106K
nd,0/3,V50A+I51S+A101W
3.47,2/3,V64P+T104C
4.81,1/3,F27G+T58V+Y60R
5.24,1/3,S35Q+R57L+R100G
4.36,1/3,F27Q+D54R+A102G
5.85,2/3,S63D+A102C
nd,0/3,R57Q+V64Y+G103T
3.82,1/3,I51G+R100Q+A101Q
2.07,3/3,F27E+R56N+D106C
nd,0/3,S31W+D54E+S63A
nd,0/3,N30G+R100Q+D106M
4.10,1/3,S31T+Y52H+D106P
3.18,1/3,G55N+A102H+T104W
2.59,1/3,V64N+A101M
nd,0/3,N30M+Y32H+V50E
2.98,2/3,I34E+Y52C+S53Q
nd,0/3,S31Y+S35W+R56S
nd,0/3,N30A+I34Y+G61E
nd,0/3,G33W+R57K+F59M
nd,0/3,T28V+I34G
3.17,1/3,S53I+G61S+S107E
4.20,2/3,I34C+Y60W+S63P
4.18,1/3,I51G+G99Q+G103K
3.32,2/3,V50N+S53Q+Y60T
5.28,1/3,Y52N+T58C+A102S
nd,0/3,S31G+V50E+R57N
nd,0/3,S35C+T58D+S63I
nd,0/3,Y60A+G99V
4.54,1/3,N30Y+D62V+T104P
nd,0/3,D54E+G61C+G103N
3.93,1/3,G26E+L29Y+D54G
nd,0/3,D54K+R57P+F105T
4.63,2/3,T28N+N30Q+S53D
nd,0/3,I51W+D54T+R56M
nd,0/3,L29I+T58C+A102T
nd,0/3,D54A+R56I+R100E
nd,0/3,R57W+A102M+T104I
nd,0/3,R56S+K65M+S107F
nd,0/3,D54P+D62Y+G99W
nd,0/3,G55H+F59G+G61F
nd,0/3,S35H+G55Y+G99P
nd,0/3,I34E+D54P+R56P
nd,0/3,F27V+N30A+S35T
nd,0/3,G26W+V50C+D106S

The last 7 entries again:

changes,"mean, log10 nM",seen in
R56S+K65M+S107F,nd,0/3
D54P+D62Y+G99W,nd,0/3
G55H+F59G+G61F,nd,0/3
S35H+G55Y+G99P,nd,0/3
I34E+D54P+R56P,nd,0/3
F27V+N30A+S35T,nd,0/3
G26W+V50C+D106S,nd,0/3

Three control strains display no target. For library AAYL49, 15% of the pairings with them gave a signal, with a median of 4.06 and one signal in twenty below 2.83, so weak values seen in few replicates may be background.

Source: Engelhart et al. 2022 (doi:10.1038/s41597-022-01779-4), MIT Lincoln Laboratory and A-Alpha Bio; data file from the FLAb repository.